{"source": "patent US20020090380A1", "about": "“Novel formulation comprising thymol useful in the treatment of drug resistant bacterial infections” (priority 2000, published 2002)", "test_system": "Ethidium bromide resistant strain of Mycobacterium smegmetis", "assay": "Growth in broth with drug, ethidium bromide resistant mutant", "format": "cell-based"}
{"smiles": "CC[n+]1c(-c2ccccc2)c2cc(N)ccc2c2ccc(N)cc21", "note": "[ethidium bromide]", "values": [{"measurement": "concentration at which the mutant grows well", "result": 12, "unit": "µg/mL"}]}
